Biological target: Aβ(1-40) fibrils (Homo sapiens (Human), UniProt P05067)
Test: [N-methyl-11C]BTA-1 binding assay with Aβ(1-40) fibrils
Conditions: competition for Aβ sites, FIG. 5 right panel

Amino acid sequences for entries named in this document (tags omitted). Residues count along the entry.
UniProt P05067, 672-711: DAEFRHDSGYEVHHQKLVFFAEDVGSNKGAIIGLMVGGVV

Ki: 1900 ± 510 nM
Compound: Cc1ccc2c(c1)sc(-c1ccc(N(C)C)cc1)[n+]2C.[Cl-] [ThT, Thioflavin T, reference compound]

Source: US10137210B2, “Thioflavin derivatives for use in antemortem diagnosis of Alzheimer's disease and in vivo imaging and prevention of amyloid deposition” (UNIVERSITY OF PITTSBURGH—OF THE COMMONWEALTH SYSTEM OF …, priority 2000, dated 2018)
